Data: ChEMBL document CHEMBL1154707, “Morpholine derivatives greatly enhance the selectivity of mammalian target of rapamycin (mTOR) inhibitors” (J Med Chem, 2009)

Experiment: Selectivity for FLAG-tagged human mTOR over PI3Kalpha

| Ratio IC50 | SMILES |
| --- | --- |
| 46 | CNC(=O)Nc1ccc(-c2nc(N3C[C@@H](C)O[C@@H](C)C3)c3cnn(C4CCN(Cc5cccnc5)CC4)c3n2)cc1 |
| 1530 | CCNC(=O)Nc1ccc(-c2nc(N3CCOCC3)c3cnn(C4CCN(C(=O)OC)CC4)c3n2)cc1 |
